scFv variants of Ab-95 (light chain) against a SARS-CoV-2 spike peptide

Source: Engelhart et al. 2022 (doi:10.1038/s41597-022-01779-4), MIT Lincoln Laboratory and A-Alpha Bio; data file from the FLAb repository.

The target is the same throughout: PDVDLGDISGINAS, from the HR2 region of SARS-CoV-2 spike.

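The parent was found by panning a naive human phage display library on the peptide. AAYL52 was designed without a model: most single CDR substitutions and a random sample of double and triple ones. AlphaSeq pools MATa yeast showing the antibodies with MATalpha yeast showing the peptide. Mating (16 h, 30 °C) was followed by selection of diploids and sequencing of their barcodes. Scores were corrected for input abundance and mapped to Kd with protein pairs of known affinity run in the same pool. Mating was done three times.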

Each scFv is VH, the linker GGGGSGGGGSGGGGS, VL, as in the parent Ab-95, and differs from it in the CDRs of the light chain only.
VH: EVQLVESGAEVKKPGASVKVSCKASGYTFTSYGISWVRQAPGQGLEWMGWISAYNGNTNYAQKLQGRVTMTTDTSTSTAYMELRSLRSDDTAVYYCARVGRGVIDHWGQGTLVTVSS
VL: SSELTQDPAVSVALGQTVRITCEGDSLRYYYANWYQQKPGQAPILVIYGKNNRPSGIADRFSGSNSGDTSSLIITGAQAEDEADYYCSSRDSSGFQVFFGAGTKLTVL

The whole VL of each variant is written out. Values are log10 of the apparent Kd in nM; lower means stronger binding. A pair that was not seen in that replicate is written "n.d."; this usually means weak binding, but a binder can also be missed. Background: pairings of library AAYL52 with three empty control strains gave a value in 28% of cases (median 3.91, 5th percentile 2.90). Values in that range, when seen in few replicates, are hard to tell from nonspecific mating. Also given: how often the same scFv was detected with the empty control strains, with their mean in brackets.

| # | VL | log10 Kd (nM) by replicate | signal with controls |
|---|---|---|---|
| 1 | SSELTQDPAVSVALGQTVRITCEGDSLRYYYKNWYQQKPGQAPILVIYGKKNRPSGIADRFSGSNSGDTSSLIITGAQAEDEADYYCSSRDSSEFQVFFGAGTKLTVL | 5.53 / n.d. / n.d. | 0 of 9 |
| 2 | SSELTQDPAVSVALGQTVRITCEGDSLRYYYALWYQQKPGQAPILVIYGKNNRPWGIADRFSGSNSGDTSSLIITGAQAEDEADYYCSSRASSGFQVFFGAGTKLTVL | 3.01 / 5.44 / n.d. | 5 of 9 (4.01) |
| 3 | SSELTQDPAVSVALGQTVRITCEGFSLRYYQANWYQQKPGQAPILVIYGKNNDPSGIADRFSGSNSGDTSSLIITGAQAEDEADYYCSSRDSSGFQVFFGAGTKLTVL | 2.87 / 3.24 / n.d. | 2 of 9 (3.40) |
| 4 | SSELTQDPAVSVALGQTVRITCEGDSLRYYYQNWYQQKPGQAPILVIYGKNNRPTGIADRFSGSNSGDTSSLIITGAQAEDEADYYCSWRDSSGFQVFFGAGTKLTVL | n.d. / n.d. / n.d. | 1 of 9 (3.63) |
| 5 | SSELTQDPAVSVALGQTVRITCEGDSLRYYYANWYQQKPGQAPILVIYGKNNRPSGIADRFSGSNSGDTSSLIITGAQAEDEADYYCSSRNSSGFQNFFGAGTKLTVL | 2.32 / 2.57 / 3.37 | 4 of 9 (3.65) |
| 6 | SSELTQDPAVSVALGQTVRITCEWDSLRYYYANWYQQKPGQAPILVIYMKNNRPSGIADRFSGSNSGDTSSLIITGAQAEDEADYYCSSMDSSGFQVFFGAGTKLTVL | n.d. / n.d. / n.d. | 7 of 9 (3.95) |
| 7 | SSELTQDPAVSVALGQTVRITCEGDSRRVYYAPWYQQKPGQAPILVIYGKNNRPSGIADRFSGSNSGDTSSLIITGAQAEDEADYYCSSRDSSGFQVFFGAGTKLTVL | 3.98 / n.d. / n.d. | 4 of 9 (3.97) |
| 8 | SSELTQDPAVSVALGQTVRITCEGDSLRYYYACWYQQKPGQAPILVIYGKNNYPSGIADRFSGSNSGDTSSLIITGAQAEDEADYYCSSRDTSGFQVFFGAGTKLTVL | n.d. / n.d. / n.d. | 1 of 9 (4.60) |
| 9 | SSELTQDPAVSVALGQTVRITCEGDSLWYYYANWYQQKPGQAPILVIYGKNNCPSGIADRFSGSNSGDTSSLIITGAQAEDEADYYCSSRDSWGFQVFFGAGTKLTVL | n.d. / n.d. / n.d. | 3 of 9 (4.71) |
| 10 | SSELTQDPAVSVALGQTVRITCEGDSLRYCYANWYQQKPGQAPILVIYGKNNRPIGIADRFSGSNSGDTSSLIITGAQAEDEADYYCSSRDSSGFQVFFGAGTKLTVL | 3.30 / n.d. / 3.95 | 2 of 9 (3.35) |
| 11 | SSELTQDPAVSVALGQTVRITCEGDSLRYYYANWYQQKPGQAPILVIYGKNNRPSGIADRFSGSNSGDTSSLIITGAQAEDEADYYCSSRDSSGHQYFFGAGTKLTVL | 3.17 / 4.28 / n.d. | 3 of 9 (3.73) |
| 12 | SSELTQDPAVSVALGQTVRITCCGDSLRYYYANWYQQKPGQAPILVIYGKNTRPAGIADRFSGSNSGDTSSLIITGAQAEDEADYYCSSRDSSGFQVFFGAGTKLTVL | n.d. / n.d. / 4.25 | 1 of 9 (3.03) |
| 13 | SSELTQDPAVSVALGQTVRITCAGDSLRYYAANWYQQKPGQAPILVIYGKNNRPSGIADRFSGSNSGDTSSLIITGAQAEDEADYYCSSRDSSGFQLFFGAGTKLTVL | 2.25 / 1.82 / 1.53 | 0 of 9 |
| 14 | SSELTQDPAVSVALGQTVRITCWGDSLRLYYANWYQQKPGQAPILVIYGKNNRPSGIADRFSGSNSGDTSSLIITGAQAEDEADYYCSSRCSSGFQVFFGAGTKLTVL | n.d. / 4.34 / n.d. | 1 of 9 (2.60) |
| 15 | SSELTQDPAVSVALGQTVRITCEGDSLRYYYADWYQQKPGQAPILVIYGKNDVPSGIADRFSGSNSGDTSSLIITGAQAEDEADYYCSSRDSSGFQVFFGAGTKLTVL | 4.23 / n.d. / n.d. | 2 of 9 (2.78) |

For reference, the parent read 2.31 as the reference entry and 2.25 as a member of this library.